Reference: patent US20260167638A1, “PHARMACEUTICAL COMPOUND, SALTS THEREOF, FORMULATIONS THEREOF, AND METHODS OF MAKING AND USING SAME” (Genentech, Inc., priority 2018, published 2026)

Test: Solubility in pure water at 25° C. with PXRD of solid residues
Assay type: physicochemical
Details: one hour
Protocol: The benzenesulfonate (besylate), ethanedisulfonic (edisylate), 1,5-naphthalenedisulfonic (napadisylate), and p-tolunesulfonic (tosylate) salts of Compound I were also prepared. Using a similar strategy as described above, these salts were prepared by evaporation from a solution of free base and acid in a solvent (e.g., methanol-dichloromethane 1:1, ethyl acetate-dichloromethane 1:2, isopropanol, and the like). If necessary, an amorphous salt produced in this way was crystallized by stirring the amorphous material in an appropriate solvent (e.g., ethyl acetate, acetonitrile, and the like).

S 1 hr: 1.26 mg/mL
Compound: Cn1cc(-c2cn(-c3ccc(OC(F)(F)F)cc3)c(=O)c3ncn(C)c23)cn1.O=S(=O)(O)O [mono-sulfate amorphous]
